According to PubChem BioAssay (EPA / NIEHS):
The list shows a part of the results, in another mix than the full data. Active and inactive are the calls of the source. The calls were made as follows: active = hit-call score of the fitted dose curve at least 0.9, where 1 is the maximum; inactive = score below 0.9.

Amino acid sequences for entries named in this document (tags omitted). A change or cut given only in a name is not applied to a line headed by its entry.
UniProt Q9Y261: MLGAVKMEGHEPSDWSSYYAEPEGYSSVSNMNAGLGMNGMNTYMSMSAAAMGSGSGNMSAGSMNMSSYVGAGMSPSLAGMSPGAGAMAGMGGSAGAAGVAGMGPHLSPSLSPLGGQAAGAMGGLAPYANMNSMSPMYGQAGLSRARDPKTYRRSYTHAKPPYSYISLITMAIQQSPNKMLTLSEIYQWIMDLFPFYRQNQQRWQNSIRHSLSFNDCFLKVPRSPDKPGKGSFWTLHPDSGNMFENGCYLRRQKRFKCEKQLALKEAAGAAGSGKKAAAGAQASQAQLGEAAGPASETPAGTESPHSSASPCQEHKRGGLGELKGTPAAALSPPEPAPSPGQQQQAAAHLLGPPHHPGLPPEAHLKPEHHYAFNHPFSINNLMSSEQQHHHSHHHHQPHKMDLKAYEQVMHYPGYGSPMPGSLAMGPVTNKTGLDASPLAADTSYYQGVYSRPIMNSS
UniProt Q96RI1: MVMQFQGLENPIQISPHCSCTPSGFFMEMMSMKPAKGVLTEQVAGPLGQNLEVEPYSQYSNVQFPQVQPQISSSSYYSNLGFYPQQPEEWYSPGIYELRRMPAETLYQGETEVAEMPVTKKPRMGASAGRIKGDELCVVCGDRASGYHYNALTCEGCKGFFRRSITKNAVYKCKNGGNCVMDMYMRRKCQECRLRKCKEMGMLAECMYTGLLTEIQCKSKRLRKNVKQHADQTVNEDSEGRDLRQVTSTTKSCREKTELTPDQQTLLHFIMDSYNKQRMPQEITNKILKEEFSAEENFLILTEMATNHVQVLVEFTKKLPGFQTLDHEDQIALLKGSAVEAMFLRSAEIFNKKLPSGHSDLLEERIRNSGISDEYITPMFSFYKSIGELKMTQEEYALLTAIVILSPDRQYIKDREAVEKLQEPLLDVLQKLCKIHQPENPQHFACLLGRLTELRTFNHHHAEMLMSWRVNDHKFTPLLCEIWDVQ

Experiments:
[1] = ATG_M_61_CIS: Attagene CIS-FACTORIAL HepG2 Assay for M61 Transcription Factor (Internal Marker) (AID 2282937); conditions: HepG2 Attagene CIS-FACTORIAL M61 internal marker reporter; actives raise or lower the signal
Method in brief: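 Transfect HepG2 with MRTUs; dose 24 h; isolate RNA; reverse-transcribe with DNase I treatment; PCR-amplify, FAM-label and cut with HpaI for 2 h at 37 C; resolve by CE. Bidirectional fitting against DMSO.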

[2] = ATG_EGR_CIS: Attagene CIS-FACTORIAL HepG2 Assay for human Early Growth Response 1 (EGR1) (AID 2282938); conditions: HepG2 Attagene CIS-FACTORIAL EGR reporter mRNA; actives raise or lower the signal
Method in brief: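 After a 24 h treatment of transiently transfected HepG2 cells, total RNA was reverse-transcribed and reporter sequences PCR-amplified, labelled and run on capillary electrophoresis. Reporters sit under cis-regulatory promoters sensing endogenous factors.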

[3] = ATG_M_19_CIS: Attagene CIS-FACTORIAL HepG2 Assay for M19 Transcription Factor (Internal Marker) (AID 2282939); conditions: HepG2 Attagene CIS-FACTORIAL M19 internal marker reporter; actives raise or lower the signal
Method in brief: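 HepG2, MRTU transient transfection, 24 h dosing. Total RNA → RT-PCR → 6-FAM primer extension → HpaI digest → CE fluorescence. Bidirectional curve fit, DMSO negative control.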

[4] = ATG_Ets_CIS: Attagene CIS-FACTORIAL HepG2 Assay for human Erythroblast Transformation Specific (ETS) (AID 2282941); conditions: HepG2 ETS cis-reporter transcription, actives raise or lower the signal
Method in brief: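 HepG2 cells transfected with multiple cis-regulated reporter units measuring endogenous ETS-driven transcription, 24 h after dosing. Reporter mRNA quantified by RT-PCR with capillary electrophoresis; bidirectional fit relative to DMSO.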

[5] = target: Hepatocyte nuclear factor 3-beta (Homo sapiens) (UniProt Q9Y261); test: ATG_FoxA2_CIS: Attagene CIS-FACTORIAL HepG2 Assay for human Forkhead box A2 (FOXA2) (AID 2282942); conditions: HepG2 cis-reporter transcription factor activity, 24 h; actives raise or lower the signal
Method in brief: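 24 h dosing of HepG2 bearing cis-reporter constructs; mRNA readout by RT-PCR/CE fluorescence; bidirectional fit, DMSO baseline.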

[6] = ATG_FoxO_CIS: Attagene CIS-FACTORIAL HepG2 Assay for human Forkhead box O (FoxO) (AID 2282943); conditions: HepG2 Attagene cis-reporter, FoxO element, mRNA; actives raise or lower the signal
Method in brief: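 HepG2, transient MRTU transfection (cis element, endogenous TFs). Dose 24 h. TriZol RNA → oligo(dT) RT → PCR → 6-FAM primer extension → HpaI cut → CE. Gain/loss vs DMSO.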

[7] = ATG_GATA_CIS: Attagene CIS-FACTORIAL HepG2 Assay for human GATA Binding Protein (AID 2282944); conditions: HepG2 GATA cis-element reporter, Attagene multiplex mRNA; actives raise or lower the signal
Method in brief: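 Cells: HepG2, transiently transfected with cis-regulated reporter transcription units. Exposure: 24 h. Detection: RT-PCR plus capillary electrophoresis of FAM-labeled fragments. Analysis: bidirectional, DMSO as baseline.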

[8] = ATG_GLI_CIS: Attagene CIS-FACTORIAL HepG2 Assay for human Zinc Finger Protein GLI1 (AID 2282945); conditions: HepG2, Attagene cis-factorial reporter mRNA, GLI element; actives raise or lower the signal
Method in brief: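 Bidirectional curve fits relative to DMSO, using reporter mRNA levels from RT-PCR plus capillary electrophoresis. Cells were HepG2 transiently carrying cis-regulated reporter constructs, harvested 24 h after dosing.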

[9] = target: Bile acid receptor (Homo sapiens) (UniProt Q96RI1); test: ATG_IR1_CIS: Attagene CIS-FACTORIAL HepG2 Assay for human Nuclear Receptor Subfamily 1 Group H Member 4 (NR1H4), IR1 submotif (AID 2282946); conditions: IR1 reporter transcription, actives raise or lower the signal
Method in brief: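 Cells (human HepG2) carry transiently transfected cis-promoter reporter transcription units. Compounds are incubated 24 h, total RNA is reverse-transcribed and amplified, and labelled fragments are resolved by capillary electrophoresis. Curves use DMSO as baseline.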

[10] = ATG_ISRE_CIS: Attagene CIS-FACTORIAL HepG2 Assay for human Interferon Regulatory Factor 1 (IRF1) binding to an Interferon-Stimulated Response Element (ISRE) (AID 2282948); conditions: HepG2 ISRE cis-reporter (Attagene), mRNA transcription readout; actives raise or lower the signal
Method in brief: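 Transiently transfected HepG2 cells carrying cis-element reporter units, dosed 24 hours. Reporter mRNA quantified by RT-PCR, fluorescent primer extension, HpaI digestion and capillary electrophoresis. Bidirectional fitting relative to DMSO.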

Measured: AC50

O=[N+]([O-])c1ccc([N+](=O)[O-])cc1
inactive: [1] | [2] | [3] | [4] | [5] | [7]
active: [6] 160000 nM | [8] 61000 nM | [9] 26100 nM | [10] 23700 nM

N#CSc1ccc([N+](=O)[O-])cc1[N+](=O)[O-]
inactive: [1] | [2] | [3] | [4] | [5] | [6] | [7] | [8] | [10]

CCCCO[P+](=O)OCCCC
inactive: [1] | [2] | [3] | [4] | [5] | [6] | [7] | [8] | [10]

CC(C)CCCCCCCOP(OCCCCCCCC(C)C)Oc1ccccc1
inactive: [1] | [2] | [3] | [4] | [5] | [6] | [7] | [8] | [10]

O=P(Cl)(Oc1ccccc1)Oc1ccccc1
inactive: [1] | [2] | [3] | [4] | [5] | [6] | [7] | [8] | [10]

O=[As]c1ccccc1 (centres undefined)
active: [4] 412 nM | [5] 650 nM | [6] 491 nM | [7] 237 nM | [9] 333 nM
inactive: [1] | [3]

CCCCC(CC)CO[P+](=O)OCC(CC)CCCC (centres undefined)
inactive: [1] | [2] | [3] | [4] | [5] | [6] | [7] | [8] | [10]

O=C1C2CC=CCC2C(=O)N1SC(Cl)(Cl)C(Cl)Cl (centres undefined)
inactive: [1] | [2] | [3] | [4] | [5] | [6] | [7] | [8] | [9] | [10]

CC(C)OP(=S)(OC(C)C)SCCNS(=O)(=O)c1ccccc1
inactive: [1] | [2] | [3] | [4] | [5] | [6] | [7] | [8] | [10]

CN(C(=O)Cc1cccc2occc12)[C@H]1CC[C@@]2(CCCO2)C[C@@H]1N1CCCC1
inactive: [1] | [2] | [3] | [4] | [5] | [6] | [7] | [8] | [9] | [10]

O=[p+]1oc2ccccc2c2ccccc21 (centres undefined)
inactive: [1] | [2] | [3] | [4] | [5] | [6] | [7] | [8] | [9] | [10]

O=C(Cl)Oc1ccccc1
inactive: [1] | [2] | [4] | [5] | [6] | [7] | [8] | [9] | [10]
active: [3] 84.5 nM

ClP(Cl)c1ccccc1
inactive: [1] | [2] | [3] | [4] | [5] | [6] | [7] | [8] | [10]

CCCCOP(OCCCC)OCCCC
inactive: [1] | [2] | [3] | [4] | [5] | [6] | [7] | [8] | [9] | [10]

O=[P+](Oc1ccccc1)Oc1ccccc1
inactive: [1] | [2] | [3] | [4] | [5] | [6] | [7] | [8] | [10]

O=C(Cl)OCCOC(=O)Cl
inactive: [1] | [2] | [3] | [4] | [5] | [6] | [7] | [8] | [9] | [10]

Cc1cc([N+](=O)[O-])cc([N+](=O)[O-])c1O
inactive: [1] | [2] | [3] | [4] | [5] | [6] | [7] | [8] | [9] | [10]
